Assay [1] has as its target T1, mouse big-ET-1 (SEQ ID NO:437) (Mus musculus, UniProt P22387).
T1 sequence (P22387 53-91 limits assumed): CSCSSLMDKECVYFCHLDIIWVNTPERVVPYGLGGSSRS
The assay can be described thus: Surface plasmon resonance (Biacore) binding, mAb capture format, 37° C. The procedure:
(§1) Measurements were conducted on a T200 Biacore instrument (Biacore Life Sciences division of GE Healthcare, Piscataway, N.J.). […] Different concentrations of small-ET-1 (SEQ ID NO:435), human big-ET-1 (SEQ ID NO:434) or mouse big-ET-1 (SEQ ID NO:437) were injected over the anti-big-ET-1 captured surfaces at a flow rate of 100 μl/min. Peptide binding was monitored for 3 min while dissociation of mAb-bound peptide was monitored for 4 min in HBST running buffer (0.01 M HEPES pH 7.4, 0.15 M NaCl, 3 mM EDTA, 0.005% v/v Surfactant P20). Kinetic association (ka) and dissociation (kd) rate constants were determined by processing and fitting the data to a 1:1 binding model using Scrubber 2.0 curve fitting software.
Background: Surface plasmon resonance follows binding to a sensor surface in real time, without labels.

In assay [2] the target is T2, human big-ET-1 (SEQ ID NO:434) (Homo sapiens, UniProt P05305).
T2 sequence (P05305 53-90 limits assumed): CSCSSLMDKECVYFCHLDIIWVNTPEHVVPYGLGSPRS
The description is as above. The procedure:
as §1

The mark [3] stands for this setting: analyte human big-ET-1, mAb capture.

B1: H4H6335P: anti-big-ET-1 antibody, human IgG4 Fc; HCVR/LCVR SEQ ID NO: 274/282 (antibody, V domains shown)
VH: EVQLVESGGGLVKPGGSLRLSCAASGFTFSNDWMSWVRQAPGKGLEWVGRIKRKTDGGTTDYAAPVKGRFTISRDDSKNTLYLQMNSLKTEDTAVYYCTTGGYERGGQGTLVTVSS
VL: [omitted - about 100 residues]LTFGGGTKVEIK
modifications: human IgG4 Fc
As to B1, the “binding to mouse big-ET-1 (in words)” value in assay [1] is “did not show any binding”. For the same molecule, in assay [1] (analyte mouse big-ET-1, mAb capture, KD=kd/ka), the dissociation constant (Kd) (in general, the free concentration of one partner at which half of the binding sites on the other are occupied at equilibrium, for simple one-to-one binding) was more than 1000 nM. Further, in assay [2], the “binding to human big-ET-1 (in words)” value is on record as “high affinity binding”. In assay [2] (setting [3]), this molecule displayed a ka of 818000 M/s and a kd of 0.00437 s⁻¹.

Source of the values: US9751932B2, “Anti-big-endothelin-1 (big-ET-1) antibodies and uses thereof” (Regeneron Pharmaceuticals, Inc., priority 2012, dated 2017).
